Details: all test substance-administered groups (10 and 20 μg/1 mL/head IV, single dose), Day 7, vs normal control group
Method: The intravenous administration was done by fixing an animal into a correction frame, and slowly injecting at a rate of within 1 mL/min through the micro vein using a syringe equipped with 26 gauges needle. The intraperitoneal administration was performed by fixing the animal by a transdermal skin fixation method and intraperitoneally injecting using a syringe equipped with 26 gauges needle.

alarin (human) trifluoroacetate salt [test substance]
weight level measured on the day of necropsy: no significant difference from the normal control group

— patent publication US11642392B2, “Therapeutic agent of uremia containing alarin as the main ingredient” (JU TIDE CO., LTD., priority 2017, dated 2023)
